These results are taken from ChEMBL document CHEMBL1126121, “Non-prostanoid thromboxane A2 receptor antagonists with a dibenzoxepin ring system. 1” (J Med Chem, 1992).

The subject of this test is Thromboxane-A synthase (Bos taurus). In words: Inhibitory effect against thromboxane A2 synthase from bovine platelets at 10 uM concentration.

Molecule `COc1ccccc1C(=O)NCCSC1c2ccccc2COc2ccc(C(=O)O)cc21` (stereo unspecified) returned an inhibition of 37%.

As a reminder, the inhibition is the relative decrease from the control value, in per cent.
